Measured affinities in a library of Ab-14 heavy chain variants

Values reported by Engelhart et al. 2022, doi:10.1038/s41597-022-01779-4 (FLAb copy).

All variants were tested on one target, the spike HR2 peptide PDVDLGDISGINAS (SARS-CoV-2).

Parent: Ab-14, a human scFv built as VH, a 15-residue (Gly4Ser)3 linker, VL. Only the CDRs of the heavy chain vary.
VH: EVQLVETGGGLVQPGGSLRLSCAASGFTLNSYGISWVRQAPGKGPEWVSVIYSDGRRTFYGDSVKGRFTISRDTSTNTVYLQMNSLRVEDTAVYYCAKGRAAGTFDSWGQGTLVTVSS
VL: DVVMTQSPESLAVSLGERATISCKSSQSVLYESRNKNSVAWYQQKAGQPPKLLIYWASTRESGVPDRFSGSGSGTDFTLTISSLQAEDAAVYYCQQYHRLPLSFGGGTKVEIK

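The parent was found by panning a naive human phage display library on the peptide. Library AAYL49 holds single substitutions and randomly drawn double and triple substitutions in the CDRs. The scFvs were displayed on barcoded MATa yeast, the peptide on MATalpha yeast. Mating (16 h, 30 °C) was followed by selection of diploids and sequencing of their barcodes. Each replicate has its own calibration line, from reference interactions of the BCL2 family. Each pool was mated in three replicate cultures.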

Each variant is given by its three heavy chain CDRs, as the data file delimits them; those of the parent are GFTLNSYGIS, VIYSDGRRTFYGDSVK, GRAAGTFDS.
Each Kd is an estimate from the mating assay, the geometric mean of the replicates in which the pair was seen; lower is stronger.
"no signal" means that the variant was in the library but no mating with the target was seen in any replicate; the authors take this as a sign of poor binding, and no number exists.
Empty control strains, which show no peptide, gave a signal in 15% of pairings with library AAYL49; the median was 11 µM and 95% of these signals were weaker than 680 nM. No background was subtracted.

apparent Kd | seen in | CDR-H1 | CDR-H2 | CDR-H3
2.6 nM | 3 of 3 | GVTLNSYGIS | VIYADGRRTFYGDSVK | GRAAGTFDS
no signal | 0 of 3 | GFTLNSYGIS | VIYSDGRRTFYGDPVK | GRAFGTFDS
no signal | 0 of 3 | GFSLNSYGIS | VIYSDGRRFFYGDSVK | GRAAMTFDS
130 µM | 1 of 3 | GFTLNSSGIS | VISWDGRRTFYGDSVK | GRAAGTFDS
73 µM | 3 of 3 | GFTWNSYGIS | VIYSDGRRSFYVDSVK | GRAAGTFDS
no signal | 0 of 3 | GFTLNSYGIS | VIYSDGRNTFYGDVVK | VRAAGTFDS
2.8 nM | 3 of 3 | GFTPNDYGIS | VIYSDGRRTFYGDSVK | GRVAGTFDS
no signal | 0 of 3 | GFTLDSYGIS | VIYSDGRRDTYGDSVK | GRAAGTFDS
no signal | 0 of 3 | GFTLNSYGIS | VIYSDGRRTFYNDSVK | GRAAGGEDS
no signal | 0 of 3 | GFTLNSYGIE | VIYSDGRRTFYGDSVW | GRAAGTFDS
18 µM | 3 of 3 | GFTLNSYGIS | GIESDGRRTFYGMSVK | GRAAGTFDS
50 nM | 3 of 3 | GFTLNSYGIS | VIYSDGRRTFYTDSVK | GRAAMIFDS
no signal | 0 of 3 | IFTLNSYGIS | VIMSDGRRTFYGDSVE | GRAAGTFDS
32 nM | 2 of 3 | GKTLNSYGIS | VIYSDGRRTFYGDSVL | GRYAGTFDS
42 µM | 3 of 3 | GFTLNSYGIS | TIYSDGRRTFYTDSVK | HRAAGTFDS
140 µM | 3 of 3 | NFTLNSYLIS | VIYSDGRRTFYGDSVK | GRAAGTFQS
51 µM | 1 of 3 | GFTLNSYGIS | VIYSQCRRTFYGDSVR | GRAAGTFDS
260 nM | 3 of 3 | GRTLNDYGIS | VIYSDGRRTFYGDSVK | GRAAGTFDD
6.4 µM | 1 of 3 | GFTLNSYGIS | VKYSDGRHTFYGDSVK | GRAAGTFDF
no signal | 0 of 3 | DFTLNSYGIS | AIYSDGRRTFYGDSVK | GRAAGTLDS
no signal | 0 of 3 | EFTLNSYGIS | VIYSDGRRIFYGDSVK | GRAARTFDS
14 µM | 1 of 3 | GFTLGSYGII | VIYSDGRRTFYGDSVK | GRAAGTFDV
7.7 µM | 2 of 3 | GFTLNSYIIS | VIYMDGRRTFYGDSYK | GRAAGTFDS
no signal | 0 of 3 | GFTLNSYGIS | VYYSDFRRTFYGDSVK | IRAAGTFDS
no signal | 0 of 3 | DFTLNSYGIS | VIYSDGRRTFYGDSVK | GRAAGTEDS
28 µM | 1 of 3 | GFTLNSYGIS | VCYSDGIRTFYGDSVK | GRAAGTFSS
no signal | 0 of 3 | GFTLNSYGIS | VIYSDGRRTFIWDSVK | GRAAGTFDS
100 nM | 3 of 3 | AFTLNSYGIS | VIYSDGRRTFYGDSVK | GRSAGTFDQ
13 µM | 1 of 3 | GQTLNSYGIS | VIYSGGRRTFYGDSVK | GRACGTFDS
96 µM | 1 of 3 | GFTLNSYVPS | VIYSDGRRTFYGDSVK | GRAAGTFRS
90 nM | 3 of 3 | GFTLNMYGIS | VIYSDGRRTFYIDSVI | GRAAGTFDS
260 µM | 3 of 3 | GFTLNSYGIS | YIYSTGRRTWYGDSVK | GRAAGTFDS
4.3 µM | 1 of 3 | GGTLNSYGIS | YIYSDSRRTFYGDSVK | GRAAGTFDS
no signal | 0 of 3 | GFTLNSYKIS | VIYSDGRRTFYGDSVK | GMAAGTKDS
2.2 µM | 2 of 3 | GFTLQSYGIS | VIYSDGRRQFYGDSVK | GRAAGTFPS
1.2 µM | 1 of 3 | GFTLNSYGIS | VIYRDGRRTFVGDSVK | GRAFGTFDS
no signal | 0 of 3 | GFTLDSYWIS | VIYSDGRRTFYKDSVK | GRAAGTFDS
40 µM | 2 of 3 | GYTLNSAGIS | VTYSDGRRTFYGDSVK | GRAAGTFDS
no signal | 0 of 3 | GFTLNSYGIS | VIYSDGRRAFYGDSVK | GRTAGTVDS
no signal | 0 of 3 | GLTLNSPGIS | VIYSDGRRTFYGDSVK | GRACGTFDS
34 nM | 3 of 3 | GFTLWSYGIS | VIYSDGERTFYGDSVK | GRAAGTFDQ
no signal | 0 of 3 | GFTLNNYGIS | VIYSDGRRTFVGDSVN | GRAAGTFDS
3.5 µM | 1 of 3 | GFTLNSYGIS | VIYIDGRRTFYWDSVK | VRAAGTFDS
27 µM | 2 of 3 | GFTLNSYGCS | VIYSDGRRTFYNDSVK | GRATGTFDS
no signal | 0 of 3 | GFTLNSKGIS | VIYSYGRRTFYGDSVK | GRAPGTFDS
6.0 nM | 3 of 3 | GFTLNSYGIS | VGYSDGRRTFYLDSVK | GRLAGTFDS
20 nM | 3 of 3 | GFTLQSYGIS | VIYSDGRRTFYGDPVK | GRAAGTFDH
3.2 µM | 1 of 3 | GFTLNSYGIS | VIYSDGRRQIYGVSVK | GRAAGTFDS
5.9 µM | 3 of 3 | GFTLNSYGIS | EIYSDGRRGFYGDSVK | LRAAGTFDS
17 µM | 1 of 3 | GFTLNSYGIS | VIYGEGRRTFYGDSMK | GRAAGTFDS
no signal | 0 of 3 | GFTLISYGIS | VIYSDGDRTFYGDSVK | GRAAWTFDS
7.9 µM | 1 of 3 | GFTLNSYGIS | VIYSDGRRTFYCDSVK | GRAAEPFDS
420 nM | 3 of 3 | GFTLNQYGIS | VIYSDGRRMFYGDLVK | GRAAGTFDS
110 µM | 2 of 3 | GFTLSSYGIS | VIYSDGFRTFYGDSVK | GRAAGTQDS
2.0 µM | 1 of 3 | GFWRNSYGIS | VIYSDDRRTFYGDSVK | GRAAGTFDS

The 4 strongest on average among those seen in every replicate, once more:

CDR-H1 | CDR-H2 | CDR-H3 | apparent Kd | seen in
GVTLNSYGIS | VIYADGRRTFYGDSVK | GRAAGTFDS | 2.6 nM | 3 of 3
GFTPNDYGIS | VIYSDGRRTFYGDSVK | GRVAGTFDS | 2.8 nM | 3 of 3
GFTLNSYGIS | VGYSDGRRTFYLDSVK | GRLAGTFDS | 6.0 nM | 3 of 3
GFTLQSYGIS | VIYSDGRRTFYGDPVK | GRAAGTFDH | 20 nM | 3 of 3